From patent US20260167708A1

Columns and labels:
[1] = biological target: recombinant human TSLP (human) (UniProt Q969D9); assay: cell-based or functional assay
[2] = biological target: recombinant TSLP-His ligand (Homo sapiens (Human)) (UniProt Q969D9); assay: Alpha bead receptor-ligand binding assay; inhibition of TSLP-His binding to biotinylated TSLPR, relative to Reference Standard

Row | Substance | Cell-based Reporter Gene Bioassay % Relative Potency [1] [%] | % Relative Potency [2] [%]
1 | Basic Fraction B-1 of stressed tezepelumab material (40C, up to four weeks) (antibody) | 94 | 101
2 | Basic Fraction B-2 of stressed tezepelumab material (40C, up to four weeks) (antibody) | 86 | 93
3 | Tezepelumab CEX-UHPLC acidic peak fraction A-1 (antibody) | 94 | 95
4 | Tezepelumab CEX-UHPLC acidic peak fraction A-2 (antibody) | 99 | 106
5 | Tezepelumab CEX-UHPLC basic peak fraction B-1 (antibody) | 103 | 109
6 | Tezepelumab CEX-UHPLC basic peak fraction B-2 (antibody) | 94 | 106
7 | Tezepelumab CEX-UHPLC basic peak fraction B-3 (antibody) | 82 | 95
8 | Tezepelumab CEX-UHPLC main peak fraction (MP) (antibody) | 104 | 
9 | Tezepelumab drug substance (DS) (antibody) | 100 | 
10 | Tezepelumab drug substance (DS) sample incubated 38 days (antibody) | 90 | 
